{"source": "patent US7541371B2", "about": "“Method for treating a motor neuron disease” (Eisai R&D Management Co., Ltd., priority 2006, dated 2009)", "system": "rat motor neuron cells", "experiment": "Inhibition of 5HT toxicity in rat motor neuron primary pure culture system", "format": "cell-based", "settings": "compound added 5 to 10 min before 5HT; survival three days after seeding; FIG. 5, FIG. 6", "protocol": "Rat motor neuron primary pure culture was carried out in the same manner as in Example 1 to prepare rat motor neuron cells. Based on the results of cell measurement, the rat motor neuron cells were diluted with the culture solution to 1.1 to 1.2×10^4 cells/mL. Greiner 4-well dishes previously coated with poly-L-ornithine/laminin were seeded with the cell suspension at 90 μL/well with a 1 mL Pipetman. One hr after the start of culture, a 5HT1A receptor antagonist NAN-190 (TOCRIS) or a 5HT2A receptor antagonist MDL-11939 (TOCRIS) was added, and serotonin (5HT) was added thereto 5 to 10 min after the addition of the antagonist. The initial viable cell count was measured three hr after the addition of serotonin (5HT). The viable cell count was again measured three days after the cell seeding, and the survival rate was calculated based on the initial viable cell count. […]\nRat motor neuron primary pure culture was carried out in the same manner as in Example 1 to prepare rat motor neuron cells. […] The initial viable cell count was measured three hr after the addition of serotonin (5HT). The viable cell count was again measured three days after the cell seeding, and the survival rate was calculated based on the initial viable cell count. […]"}
{"smiles": "O=c1n(CCCN2CCN(c3cccc(Cl)c3)CC2)nc2ccccn12", "note": "[trazodone]", "values": [{"measurement": "Concentration at which 5HT excitotoxicity is inhibited", "value": "not more than 1 nM"}]}
